# How the values were obtained:
# [1] = molecular target: human platelet actin (F-actin) (human) (UniProt P60709); assay: co-sedimentation; low-speed pelleting (12,000 g, 15 min) of actin bundles; 6 uM F-actin, 3 uM LPL, 20 mM Tris pH 7.5, 100 mM KCl, 1 mM MgCl2, 0.1 mM CaCl2, 0.1 mM ATP, without EGTA (Ca2+); room temperature, 1 h; pellet read by SDS-PAGE
# [2] = molecular target: human platelet actin (F-actin) (human) (UniProt P60709); assay: co-sedimentation; low-speed pelleting (12,000 g, 15 min) of actin bundles; 6 uM F-actin, 3 uM LPL, 20 mM Tris pH 7.5, 100 mM KCl, 1 mM MgCl2, 0.1 mM CaCl2, 0.1 mM ATP, with 5 mM EGTA; room temperature, 1 h; pellet read by SDS-PAGE
substance,measurement,setting,value
full-length human L-plastin (from UniProt P13796 1-627) (natural protein),percent of LPL in the pellet,[1],50%
same,percent of LPL in the pellet,[2],70%
